Test results taken from patent publication US8980908B2, “Non-peptidyl, potent, and selective mu opioid receptor antagonists and their use in treating opioid addiction and opioid induced constipation” (Virginia Commonwealth University, priority 2009, dated 2015).

Sequences of proteins named here, by UniProt entry; tags and fusion partners are left off. A change or cut given only in a name is not applied to a line headed by its entry.
UniProt P42866, whole entry: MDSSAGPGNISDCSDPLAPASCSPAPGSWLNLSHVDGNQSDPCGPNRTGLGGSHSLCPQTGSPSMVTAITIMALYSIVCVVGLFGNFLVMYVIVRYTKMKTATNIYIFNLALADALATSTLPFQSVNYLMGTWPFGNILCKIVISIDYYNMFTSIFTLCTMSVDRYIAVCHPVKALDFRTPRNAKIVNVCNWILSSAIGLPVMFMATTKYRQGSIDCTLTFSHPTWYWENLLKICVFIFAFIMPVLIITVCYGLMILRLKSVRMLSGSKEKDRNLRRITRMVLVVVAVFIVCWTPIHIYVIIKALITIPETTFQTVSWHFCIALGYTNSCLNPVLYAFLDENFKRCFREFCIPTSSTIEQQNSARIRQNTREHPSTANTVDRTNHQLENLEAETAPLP
UniProt P41145: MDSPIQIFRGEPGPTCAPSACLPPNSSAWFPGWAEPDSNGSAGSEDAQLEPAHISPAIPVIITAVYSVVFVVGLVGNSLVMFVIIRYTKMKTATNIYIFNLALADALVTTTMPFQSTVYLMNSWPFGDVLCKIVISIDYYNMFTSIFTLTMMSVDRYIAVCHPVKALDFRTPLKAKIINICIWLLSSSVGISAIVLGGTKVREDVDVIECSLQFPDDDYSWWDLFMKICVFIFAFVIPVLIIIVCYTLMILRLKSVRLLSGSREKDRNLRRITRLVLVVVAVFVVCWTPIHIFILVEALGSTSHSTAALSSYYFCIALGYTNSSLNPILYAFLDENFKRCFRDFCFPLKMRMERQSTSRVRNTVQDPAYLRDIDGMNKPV

What was measured:
[1] = molecular target: T1, MOR (Mus musculus, UniProt P42866); assay: 35S-GTP[γS]-binding functional assay in MOR expressing CHO cells (Example 2); type: biochemical; set-up: expressed in transfected cells; host or cells: CHO (Chinese hamster ovary) cell line, membrane preparation
[2] = molecular target: T1, MOR; assay: Competitive radioligand binding, [3H]naloxone, CHO cells (Example 2); set-up: expressed in transfected cells; host or cells: CHO (Chinese hamster ovary) cell line, membrane preparation; conditions: n=3; listed as 9 (NAQ); read-out: Ki ± SEM MOR
[3] = molecular target: T2, KOR (Homo sapiens, UniProt P41145); type: binding; conditions: n=3; read-out: Ki ± SEM KOR
T2 construct: expressed in transfected cells; host or cells: CHO (Chinese hamster ovary) cell line, membrane preparation

[4] = molecular target: T2, KOR; assay: KOR [35S]GTPγS binding assay (Example 5); type: biochemical; conditions: three experiments
Method: The KOR full agonist 2-(3,4-dichlorophenyl)-N-methyl-N-[(1R,2R)-2-pyrrolidin-1-ylcyclohexyl]acetamide 17 (U50,488)41 and DOR full agonist 4-[(R)-[(2S,5R)-4-allyl-2,5-dimethylpiperazin-1-yl](3-methoxyphenyl)methyl]-N,N-diethylbenzamide 18 (SNC80)42 were included in the assays as reference compounds for a maximal effect at the KOR and the DOR, respectively.
The radioligand binding assay and the [^35S]GTPγS binding assay were conducted using monoclonal OR-expressed Chinese hamster ovarian (CHO) cell lines as described previously.^22,29,36,37 Briefly, for the competition binding assay, [^3H]NLX, [^3H]DPN, and [^3H]NTI were used to label the MOR, the KOR, and the DOR, respectively. Aliquots of a membrane protein (30 μg) were incubated with the corresponding radioligand in the presence of different concentrations of the ligand under investigation in TME buffer (50 mM Tris, 3 mM MgCl2, 0.2 mM EGTA, pH 7.7) at 30° C. for 1.5 h. The bound radioactive ligand was separated from the free radioligand by filtration using the Brandel harvester (Biomedical Research & Development Laboratories, MD). […] The potency of the drugs in displacing the specific binding of the radioligand was determined by linear regression analysis of Hill plots. […] Nonspecific binding was determined with 20 μM unlabeled GTPγS.

[5] = molecular target: T2, KOR; conditions: NAP, cited from earlier work

| Substance | EC50 ([1]; n=3) [nM] | Percent Max of DAMGO ([1]; normalized to full agonist DAMGO (3 μM)) [%] | Ki [2] | Ki [3] [nM] | EC50 [4] [nM] | KOR [35S]GTPγS Binding % Emax of U50,488 [4] [%] | KOR 35S-GTP[γS] Binding % Emax of U50,488H (see reference 66) [5] [%] | EC50 ([5]; read-out: KOR 35S-GTP[γS] Binding EC50 (see reference 66)) [nM] |
| --- | --- | --- | --- | --- | --- | --- | --- | --- |
| 17-Cyclopropylmethyl-3,14β-dihydroxy-4,5α-epoxy-6α-[(3′-isoquinolyl)acetamido]morphinan [Compound 9] | 4.36 ± 0.723 | 15.8383 ± 2.5353 | 0.55 nM and 0.556 nM | 26.5 ± 5.22 | 10.9 ± 7.9 | 13.1 ± 2.0 |  |  |
| 17-Cyclopropylmethyl-3,14β-dihydroxy-4,5α-epoxy-6β-[(4′-pyridyl)acetamido]morphinan [Compound 6] |  |  |  | 608 ± 56.6 |  |  | 45.5 ± 4.4 | 28.8 ± 14.4 |

Several values for one entry are separate records, joined by “and”; a condition that tells them apart may be missing. Equal entries are not always repeated. Where two headings read alike, the source gives them in different places.
